{
  "source": "paper PMC4250310",
  "about": "(Bioorganic & medicinal chemistry letters, 2014)",
  "origin": "cited, not measured here",
  "system": "ALS",
  "details": "ALS patients; cited from earlier work",
  "data": [
    {"smiles": "Nc1nc2ccc(OC(F)(F)F)cc2s1", "note": "[Riluzole]", "values": [
      {"measurement": "extension of median survival", "value": "2–3 months"}
    ]}
  ]
}
